Values quoted from earlier work, collected in publication PMC9398548 (European journal of pharmaceutical sciences : official …, 2020).

Sequences of proteins named here, by UniProt entry; tags and fusion partners are left off. Residues count along the entry.
UniProt P56524, 655-1084 limits assumed: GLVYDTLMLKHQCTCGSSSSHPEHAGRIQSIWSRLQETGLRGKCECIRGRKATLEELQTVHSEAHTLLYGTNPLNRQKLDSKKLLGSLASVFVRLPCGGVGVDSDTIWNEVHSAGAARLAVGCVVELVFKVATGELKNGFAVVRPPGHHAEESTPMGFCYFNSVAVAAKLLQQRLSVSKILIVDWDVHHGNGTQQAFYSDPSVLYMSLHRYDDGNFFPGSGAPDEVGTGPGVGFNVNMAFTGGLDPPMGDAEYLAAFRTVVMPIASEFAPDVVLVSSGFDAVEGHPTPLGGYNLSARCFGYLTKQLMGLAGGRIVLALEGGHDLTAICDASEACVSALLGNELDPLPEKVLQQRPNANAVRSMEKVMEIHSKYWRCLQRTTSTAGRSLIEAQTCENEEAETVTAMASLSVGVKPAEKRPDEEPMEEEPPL

Target: HDAC4 (Homo sapiens, UniProt P56524)
Conditions: read-out: HDAC4 IC50; ref Kleinschek, A., et al. (2016); cited from earlier work

SMILES: COc1ccc(Cn2ccc3ccc(C(=O)NO)cc32)cc1 [PCI-34051]
- IC50: 10 µM
